These are literature values, as cited in patent US20220313686A1, “PHARMACEUTICAL COMPOSITIONS COMPRISING A COMBINATION OF OPIOID ANTAGONISTS” (YISSUM RESEARCH DEVELOPMENT COMPANY OF THE HEBREW …, priority 2019, published 2022).

The test system of the data set is opioid receptors. The settings on record: in vivo; cited from earlier work.

On to `C=CCN1CC[C@]23c4c5ccc(O)c4O[C@H]2C(=O)CC[C@@]3(O)[C@H]1C5` [Naloxone, 17-allyl-4,5α-epoxy-3,14-dihydroxymorphinan-6-one], for which the duration of effect result was “lasts for about an hour” and the onset of action result is given as “acts within minutes”.
